The conditions of series [1]: Crystal; DSC.
Series [2] in a line: Molar enthalpy of transition or fusion. The following applies: Crystal; DSC.

± gives the expanded uncertainty stated by the source.

Take `COc1cc([N+](=O)[O-])c(OC)cc1Cl` [1-chloro-2,5-dimethoxy-4-nitrobenzene]: in series [1], the Triple point temperature was 414.87 ± 1.3 K. Besides, the “Molar enthalpy of transition or fusion” value in series [2] worked out at 6.74 ± 0.813 kcal/mol.

The values above are taken from the NIST ThermoML archive (doi:10.1021/acs.jced.9b00011).
